Values of other authors in PMC7547215 (Proceedings of the National Academy of Sciences of the …, 2020).
Like-named read-outs stand apart in the source and are kept apart here.

What was measured:
VEGFR and PDFGR [1] = conditions: read-out: IC50, VEGFR and PDGFR in vitro; cited from earlier work
VEGFR and PDFGR [2] = conditions: read-out: IC50, VEGFR and PDGFR in cells; cited from earlier work

CCN(CC)CCNC(=O)c1c(C)[nH]c(/C=C2\C(=O)Nc3ccc(F)cc32)c1C [sunitinib]
IC50 (VEGFR and PDFGR [1]): 9 to 10 nM | IC50 (VEGFR and PDFGR [2]): 30 to 40 nM
